From US7659240B2, “Mucin immobilized chromatography” (Vertex Pharmaceuticals Incorporated, priority 2002, dated 2010)
Counter-ions that a name gives are not always drawn.

Test system: mucin immobilized to PC IAM particles
Assay: pH and mucin layer thickness dependence of partition ratio on MIC columns (1:2 and 2:1)
Settings: for (1:2) k′ (pH 3) / (1:2) k′ (pH 5) / (1:2) k′ (pH 7): column 1:2 mucin to PC IAM, 0.32 μm mucin layer; for (1:2) k′ (pH 3) / (2:1) k′ (pH 3): mobile phase pH 3; for (1:2) k′ (pH 5) / (2:1) k′ (pH 5): mobile phase pH 5; for (1:2) k′ (pH 7) / (2:1) k′ (pH 7): mobile phase pH 7; for (2:1) k′ (pH 3) / (2:1) k′ (pH 5) / (2:1) k′ (pH 7): column 2:1 mucin to PC IAM, 0.36 μm mucin layer

SMILES	(1:2) k′ (pH 3)	(1:2) k′ (pH 5)	(1:2) k′ (pH 7)	(2:1) k′ (pH 3)	(2:1) k′ (pH 5)	(2:1) k′ (pH 7)
CC(C)(C)NC[C@H](O)COc1nsnc1N1CCOCC1 [Timolol]	44.00	30.67	32.33	33.29	27.57	35.67
NS(=O)(=O)c1cc2c(cc1Cl)NCNS2(=O)=O [hydrochlorothiazide]	70.67	70.67	67.33	14.71	13.29	55.67
C=C[C@H]1C[N@@]2CC[C@H]1C[C@@H]2[C@@H](O)c1ccnc2ccc(OC)cc12 [quinidine, HCl]	49.00	87.33	99.00	37.57	63.29	132.33
CNC(=C[N+](=O)[O-])NCCSCc1ccc(CN(C)C)o1.Cl [ranitidine•HCl]	35.67	35.67	32.33	27.57	27.57	37.33
